Patent EP4831169A1, “NOVEL COMPOUND USED AS CBP/P300 INHIBITOR, AND PHARMACEUTICAL COMPOSITION FOR PREVENTING OR TREATING CANCER, INFLAMMATORY DISORDERS, OR AUTOIMMUNE DISEASES COMPRISING SAME AS ACTIVE INGREDIENT” (dated 2026)

Protein sequences, listed by entry. Tags and fused reporters are not part of them. Residues count along the entry.
UniProt Q92793, 1085-1192 limits assumed: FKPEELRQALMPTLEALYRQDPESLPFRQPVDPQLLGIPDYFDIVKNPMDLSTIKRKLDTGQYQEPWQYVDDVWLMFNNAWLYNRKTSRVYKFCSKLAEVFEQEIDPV

Legend:
BRD4 (BD1) protein = BRD4 (BD1) protein (Homo sapiens, UniProt O60885); assay: BRD4 bromodomain TR-FRET inhibitory activity assay; details: read-out: BRD4 (BD1) IC50, Table 4
CBP BRD protein = CBP BRD protein (Homo sapiens, UniProt Q92793); assay: CBP bromodomain TR-FRET inhibitory activity assay; details: read-out: CBP BRD IC50, Table 3

Compound | IC50 (BRD4 (BD1) protein) | IC50 (CBP BRD protein)
CCOC1(C)CN(c2cc(-n3c(C(C)(C)C)nc4cc(-c5cnn(C)c5)c(C(F)F)cc43)cc3c2n(C)c(=O)n3C)C1 | > 5 µM | < 0.5 µM
Cn1cc(-c2cc3nc(C(C)(C)C)n(-c4cc(-c5ccncc5)c5c(c4)n(C)c(=O)n5C)c3cc2F)cn1 | > 5 µM | < 0.5 µM
Cn1cc(-c2cc3nc(C(C)(C)C)n(-c4cc(NC5CCCCC5)c5c(c4)n(C)c(=O)n5C)c3cc2F)cn1 | > 5 µM | < 0.5 µM
Cn1cc(-c2cc3nc(-c4cncn4C)n(-c4cc(C5CCCCC5)c5c(c4)n(C)c(=O)n5C)c3cc2F)cn1 | > 5 µM | < 0.5 µM
Cn1cc(-c2cc3nc(-c4cncn4C)n(-c4cc(N5CC(C)(O)C5)c5c(c4)n(C)c(=O)n5C)c3cc2C#N)cn1 | 0.5 to 5 µM | < 0.5 µM
CNS(=O)(=O)c1ccc2nc(-c3c[nH]c4cc(C)ccc34)n(-c3cc(C4CCOCC4)c4c(c3)n(C)c(=O)n4C)c2c1 | > 5 µM | < 0.5 µM
Cc1nnc(-c2cc3nc(C(C)(C)C)n(-c4cc(N5CCOCC5)c5c(c4)n(C)c(=O)n5C)c3cc2F)o1 | > 5 µM | < 0.5 µM
Cn1cc(-c2cc3nc(C(C)(C)C)n(-c4cc(N5CCC(C)(O)CC5)c5c(c4)n(C)c(=O)n5C)c3cc2Cl)cn1 | 0.5 to 5 µM | < 0.5 µM
COC(=O)c1cc2c(cc1-c1cnn(C)c1)nc(C(C)(C)C)n2-c1cc(N2CCOCC2)c2c(c1)n(C)c(=O)n2C | 0.5 to 5 µM | < 0.5 µM
Cn1cc(-c2cc3nc(-c4cncn4C)n(-c4cc(N5CC(F)(F)C5)c5c(c4)n(C)c(=O)n5C)c3cc2C(F)F)cn1 | > 5 µM | < 0.5 µM
CC(C)Nc1cc(-n2c(C(C)(C)C)nc3cc(-c4cnn(C)c4)c(C(F)(F)F)cc32)cc2c1n(C)c(=O)n2C | > 5 µM | < 0.5 µM
Cn1cc(-c2cc3nc(C(C)(C)C)n(-c4ccc5c(c4)n(C)c(=O)n5C)c3cc2C(F)F)cn1 | > 5 µM | < 0.5 µM
CNC(=O)c1ccc(-c2cc3nc(-c4cncn4C)n(-c4ccc5c(c4)n(C)c(=O)n5C)c3cc2C(=O)NC)cc1F | > 5 µM | 0.5 to 5 µM
Cn1cc(-c2cc3nc(C(C)(C)C)n(-c4ccc5c(c4)n(C)c(=O)n5C)c3cc2F)cn1 | > 5 µM | < 0.5 µM
Cn1cc(-c2cc3nc(C(C)(C)C)n(-c4cc(OCC5COC5)c5c(c4)n(C)c(=O)n5C)c3cc2F)cn1 | > 5 µM | < 0.5 µM
CC(=O)Nc1ccc(-c2cc3nc(C(C)(C)C)n(-c4cc(N5CC(C)(O)C5)c5c(c4)n(C)c(=O)n5C)c3cc2C(F)F)cc1 | > 5 µM | < 0.5 µM
Cn1cc(-c2cc3nc(-c4cncn4C)n(-c4ccc5c(c4)n(C)c(=O)n5CC4CC4)c3cc2F)cn1 | > 5 µM | 0.5 to 5 µM
2-tert-butyl-3-[7-(3,3-difluoroazetidin-1-yl)-1,3-dimethyl-2-oxo-benzimidazol-5-yl]-6-(1-methylpyrazol-4-yl)benzimidazole-5-carbonitrile | > 5 µM | < 0.5 µM
CC(C)Nc1cc(-n2c(C(C)(C)C)nc3cc(-c4cnn(C)c4)c(F)cc32)cc2c1n(C)c(=O)n2C | > 5 µM | < 0.5 µM
CC(C)c1cc(-n2c(C3(C)COC3)nc3cc(-c4cnn(C)c4)c(F)cc32)cc2c1n(C)c(=O)n2C | > 5 µM | 0.5 to 5 µM

Compound | IC50 (BRD4 (BD1) protein) | IC50 (CBP BRD protein)
C=C(C)c1cc(-n2c(-c3cncn3C)nc3cc(-c4cnn(C)c4)c(F)cc32)cc2c1n(C)c(=O)n2C | > 5 µM | < 0.5 µM
Cn1cc(-c2cc3nc(C(C)(C)C)n(-c4cc(N5CCN(C(=O)OC(C)(C)C)CC5)c5c(c4)n(C)c(=O)n5C)c3cc2C(F)F)cn1 | > 5 µM | < 0.5 µM
CC(C)CNc1cc(-n2c(-c3cncn3C)nc3cc(-c4cnn(C)c4)c(F)cc32)cc2c1n(C)c(=O)n2C | > 5 µM | < 0.5 µM
C#Cc1cc(-n2c(-c3cncn3C)nc3cc(-c4cnn(C)c4)c(F)cc32)cc2c1n(C)c(=O)n2C | > 5 µM | < 0.5 µM
C[C@@H]1COCCN1c1cc(-n2c(-c3cncn3C)nc3cc(-c4cnn(C)c4)c(F)cc32)cc2c1n(C)c(=O)n2C | > 5 µM | < 0.5 µM
C[C@@H]1COCCN1c1cc(-n2c(C(C)(C)C)nc3cc(-c4cnn(C)c4)c(F)cc32)cc2c1n(C)c(=O)n2C | > 5 µM | < 0.5 µM
Cn1cc(-c2cc3nc(C(C)(C)C)n(-c4cc(N5CCOCC5)c5c(c4)n(C)c(=O)n5C)c3cc2OC(F)F)cn1 | > 5 µM | < 0.5 µM
CC(C)Nc1cc(-n2c(C(C)(C)C)nc3cc(-c4cnn(C)c4)c(C(F)F)cc32)cc2c1n(C)c(=O)n2C | > 5 µM | < 0.5 µM
Cn1cc(-c2cc3nc(C(C)(C)C)n(-c4cc(N5CCOCC5)c5c(c4)n(C)c(=O)n5C)c3cc2F)cn1 | > 5 µM | < 0.5 µM
Cc1cc2nc(-c3cncn3C)n(-c3cc(NC(C)C)c4c(c3)n(C)c(=O)n4C)c2cc1F | > 5 µM | 0.5 to 5 µM
CC(=O)Nc1ccc(-c2cc3nc(-c4cncn4C)n(-c4ccc5c(c4)n(C)c(=O)n5C)c3cc2F)cc1 | 0.5 to 5 µM | < 0.5 µM
Cc1ccn(-c2cc3nc(C(C)(C)C)n(-c4cc(N5CC(C)(O)C5)c5c(c4)n(C)c(=O)n5C)c3cc2C(F)F)n1 | > 5 µM | < 0.5 µM
COc1ccc(-c2cc3nc(-c4cncn4C)n(-c4cc(C5CCOCC5)c5c(c4)n(C)c(=O)n5C)c3cc2F)cc1Cl | > 5 µM | 0.5 to 5 µM
Cc1ncc(-c2cc3nc(C(C)(C)C)n(-c4cc(N5CCOCC5)c5c(c4)n(C)c(=O)n5C)c3cc2C(F)F)s1 | > 5 µM | < 0.5 µM
Cn1cc(-c2cc3nc(C(C)(C)C)n(-c4cc(OCc5ccccc5)c5c(c4)n(C)c(=O)n5C)c3cc2C(F)F)cn1 | > 5 µM | 0.5 to 5 µM
CC(C)c1cc(-n2c(C(C)(C)C)nc3cc(-c4cnn(C)c4)c(C(F)(F)F)cc32)cc2c1n(C)c(=O)n2C | > 5 µM | 0.5 to 5 µM
CNC(=O)c1ccc(-c2cc3nc(-c4cncn4C)n(-c4ccc5c(c4)n(C)c(=O)n5C)c3cc2C(=O)O)cc1F | > 5 µM | < 0.5 µM
Cc1noc(-c2cc3nc(-c4cncn4C)n(-c4cc(NC(C)C)c5c(c4)n(C)c(=O)n5C)c3cc2F)n1 | > 5 µM | < 0.5 µM
Cc1cnn(-c2cc3nc(C(C)(C)C)n(-c4cc(N5CC(C)(O)C5)c5c(c4)n(C)c(=O)n5C)c3cc2C(F)F)c1 | > 5 µM | < 0.5 µM
Cn1cc(-c2cc3nc(-c4cncn4C)n(-c4cc(C5CCN(C(=O)OC(C)(C)C)CC5)c5c(c4)n(C)c(=O)n5C)c3cc2F)cn1 | > 5 µM | < 0.5 µM

Compound | IC50 (BRD4 (BD1) protein) | IC50 (CBP BRD protein)
Cc1ccc2c(-c3nc4cc(Br)c(C#N)cc4n3-c3ccc4c(c3)n(C)c(=O)n4C)c[nH]c2c1 | > 5 µM | > 5 µM
Cn1cc(-c2ccc3c(c2)nc(-c2cncn2C)n3-c2cc(C3CCOCC3)c3c(c2)n(C)c(=O)n3C)cn1 | > 5 µM | < 0.5 µM
Cc1ncc(-c2cc3nc(C(C)(C)C)n(-c4cc(N5CC(C)(O)C5)c5c(c4)n(C)c(=O)n5C)c3cc2O)s1 | > 5 µM | < 0.5 µM
Cc1ncc(-c2cc3nc(C(C)(C)C)n(-c4cc(N5CCOCC5)c5c(c4)n(C)c(=O)n5C)c3cc2OC(F)F)s1 | > 5 µM | < 0.5 µM
Cc1nc2cc(-c3cnn(C)c3)c(C(=O)O)cc2n1-c1ccc2c(c1)n(C)c(=O)n2C | > 5 µM | > 5 µM
Cn1cc(-c2cc3nc(C(C)(C)C)n(-c4cc(N5CC(F)(F)C5)c5c(c4)n(C)c(=O)n5C)c3cc2C(F)(F)F)cn1 | > 5 µM | < 0.5 µM
CC(C)c1cc(-n2c(C3(C)CCC3)nc3cc(-c4cnn(C)c4)c(F)cc32)cc2c1n(C)c(=O)n2C | > 5 µM | 0.5 to 5 µM
COC(=O)c1cc2c(cc1Br)nc(-c1cncn1C)n2-c1ccc2c(c1)n(C)c(=O)n2C | 0.5 to 5 µM | 0.5 to 5 µM
Cn1cc(-c2cc3nc(C(C)(C)C)n(-c4cc(C5CCC(O)CC5)c5c(c4)n(C)c(=O)n5C)c3cc2C(F)F)cn1 (stereo not drawn) | > 5 µM | < 0.5 µM
Cn1cc(-c2cc3nc(-c4cncn4C)n(-c4cc(NCC5CCOCC5)c5c(c4)n(C)c(=O)n5C)c3cc2F)cn1 | > 5 µM | < 0.5 µM
Cn1cc(-c2cc3nc(-c4cncn4C)n(-c4cc(N5CC(C)(NC(=O)OC(C)(C)C)C5)c5c(c4)n(C)c(=O)n5C)c3cc2C(F)F)cn1 | > 5 µM | < 0.5 µM
CN1CCN(c2cc(-n3c(-c4cncn4C)nc4cc(-c5cnn(C)c5)c(F)cc43)cc3c2n(C)c(=O)n3C)CC1 | > 5 µM | < 0.5 µM
Cn1cc(-c2cc3nc(-c4cncn4C)n(-c4cc(C5CCOCC5)c5c(c4)n(C)c(=O)n5C)c3cc2F)cn1 | > 5 µM | < 0.5 µM
Cn1cc(-c2cc3nc(-c4cncn4C)n(-c4cc(N5CC(C)(O)C5)c5c(c4)n(C)c(=O)n5C)c3cc2F)cn1 | 0.5 to 5 µM | < 0.5 µM
CCn1cc(-c2cc3nc(C(C)(C)C)n(-c4cc(N5CC(C)(O)C5)c5c(c4)n(C)c(=O)n5C)c3cc2C(F)F)cn1 | > 5 µM | < 0.5 µM
COCc1cc2c(cc1-c1cnn(C)c1)nc(C(C)(C)C)n2-c1cc(N2CCOCC2)c2c(c1)n(C)c(=O)n2C | > 5 µM | < 0.5 µM
COc1cc2c(cc1-c1cnn(C)c1)nc(C(C)(C)C)n2-c1cc(N2CCC(O)CC2)c2c(c1)n(C)c(=O)n2C | > 5 µM | < 0.5 µM
CC(=O)N1CCN(c2cc(-n3c(C(C)(C)C)nc4cc(-c5cnn(C)c5)c(C(F)F)cc43)cc3c2n(C)c(=O)n3C)CC1 | > 5 µM | < 0.5 µM
Cn1cc(-c2cc3nc(-c4cncn4C)n(-c4cc(NC5CCCC5)c5c(c4)n(C)c(=O)n5C)c3cc2F)cn1 | > 5 µM | < 0.5 µM
COc1ccc(Oc2cc(-n3c(C(C)(C)C)nc4cc(-c5cnn(C)c5)c(C(F)F)cc43)cc3c2n(C)c(=O)n3C)cc1 | > 5 µM | < 0.5 µM
